Like-named read-outs stand apart in the source and are kept apart here.
System: human platelets
Assay: Platelet activation by FACS (PAC-1 antibody binding or surface P-selectin)
Format: cell-based

Structure (SMILES) | TRAP induced platelet activation (PAC-1 antibody binding) (moderate TRAP (5 μM), platelets pre-incubated with substance) | TRAP induced platelet activation (PAC-1 antibody binding) | platelet activation in response to TRAP after NHE inhibition | resting platelet activation (PAC-1 antibody binding)
N=C(N)NC(=O)c1nc(Cl)c(N)nc1N [amiloride] | reduces |  |  | 
Cc1onc(O)c1C[C@H](N)C(=O)O [AMPA, alpha(α)-amino-3-hydroxy-5-methyl-4-isoxazolepropionic acid] |  | dose dependently increases | restores | no affect

Source: patent US8603980B2, “Glutamate receptor antagonists and methods of use” (The Johns Hopkins University, priority 2007, dated 2013)
